Test results published in patent publication US20050202522A1, “Method of screening for antimicrobial agents” (NATIONAL INSTITUTE OF ADVANCED INDUSTRIAL SCIENCE AND …, priority 2003, published 2005).

System: FFRP pot1216151
Experiment: Gel filtration analysis of changes in assemblies of the FFRP induced by amino acids and metabolic intermediates
Assay type: binding, Pyrococcus sp. OT3
Conditions: metabolic intermediate 10 mM
Experimental: Changes in assemblies of the FFRP pot1216151 induced by interaction with amino acids and metabolic intermediates were analyzed in solution using gel filtration.
Gel filtration was carried out at a flow rate 1 ml/min, using a matrix (Protein Pak 125, 7.8×300 mm, Waters) and a 50 mM Tris-HCl buffer (pH 7.0) containing 300 mM sodium chloride. Flow of the protein was monitored by measuring the UV absorbance at 220 nm (LC Module I plus system, Waters). The FFRP pot1216151 purified by method 2, i.e., the rigorous method, was dissolved in 50 mM Tris-HCl buffer (pH 7.0) containing 200 mM sodium chloride, and kept at −80° C. until it was diluted by 10-fold with a 50 mM Tris-HCl buffer (pH 7.0) containing 300 mM sodium chloride, and mixed with each potential ligand for at least 30 minutes at room temperature (about 25° C.). In the mixture, the monomer concentration of the FFRP was approximately 100 μM.

O=C(O)CCC(=O)C(=O)O [2-oxoglutaric acid]
gel filtration peak that increased (FFRP monomer approximately 100 μM, at least 30 minutes at room temperature, UV 220 nm): the third peak increased
concluded effect on assembling of the protein (gel filtration): stabilizing intermediate assemblies
